Reference: US9708413B2, “Glycosylated linker, compound containing glycosylated linker moiety and physiologically active substance moiety or salt thereof, and methods for producing said compound or salt thereof” (Glytech, Inc., priority 2012, dated 2017)

Assay: Autocatalytic cleavage of the glycosylated linker moiety in aqueous solution, traced by HPLC (elimination half-life)
Description: To each sampled solution, a 0.5% aqueous TFA solution (28 μL) was added, and this solution was then frozen. The obtained solution was dissolved immediately before HPLC analysis, and a 50 μL aliquot thereof was injected and analyzed by HPLC [column: SHISEIDO CAPCELL PAK C18 UG-120 (5 μm), φ4.6×250 mm, flow rate: 0.7 mL/min, eluent A: 0.1% TFA in water, eluent B: 0.09% TFA/10% water/90% acetonitrile, gradient A:B=77:23→50:50 (20 min) linear concentration gradient elution]. The compound was detected using a diode array detector with a detection wavelength set to 220 nm.

Compound	Cleavage time compared with the conjugate with unprotected N terminus (both at pH 4.0 and at pH 7.4)	Abundance after 6 hours into the test (HPLC) (PBS, 37° C., pH 7.4, 6 hours)
CC(=O)N[C@@H]1[C@@H](O)[C@H](O[C@@H]2O[C@H](CO)[C@@H](O[C@@H]3O[C@H](CO[C@H]4O[C@H](CO)[C@@H](O)[C@H](O)[C@@H]4O[C@@H]4O[C@H](CO)[C@@H](O[C@@H]5O[C@H](CO)[C@H](O)[C@H](O)[C@H]5O)[C@H](O)[C@H]4NC(C)=O)[C@@H](O)[C@H](O[C@H]4O[C@H](CO)[C@@H](O)[C@H](O)[C@@H]4O[C@@H]4O[C@H](CO)[C@@H](O[C@@H]5O[C@H](CO)[C@H](O)[C@H](O)[C@H]5O)[C@H](O)[C@H]4NC(C)=O)[C@@H]3O)[C@H](O)[C@H]2NC(C)=O)[C@@H](CO)O[C@H]1NC(=O)CC(NC(=O)OCC1c2ccccc2-c2ccccc21)C(=O)N1CCN(CCNC(=O)c2ccccc2C(=O)N[C@@H](Cc2ccc(O)cc2)C(=O)N[C@@H](Cc2ccccc2)C(=O)N2CCC[C@H]2C(=O)NCC(=O)N[C@@H](CCC(N)=O)C(=O)N[C@@H](Cc2ccccc2)C(=O)N[C@@H](C)C(=O)N[C@@H](Cc2ccccc2)C(=O)N[C@@H](CO)C(=O)O)CC1 (some centres unmarked) [compound 7, glycosylated (Fmoc-Asn (asialo)-type) linker-chemerin 9 conjugate]	delayed cleavage time	–
chemerin 9 [compound 3, reference compound]	–	present in a large amount
